Reference: paper PMC3547328

Target: AzAla-labeled smMLCK peptide
Test: other fluorescence titration

stoichiometry N: 1
Substance: calmodulin (from UniProt P0DP23 2-149) (natural protein)
